This is an account of results in patent US8299073B2, “P38 MAP kinase inhibitors” (Respivert Ltd., priority 2008, dated 2012).

Protein sequences, listed by entry. Tags and fused reporters are not part of them.
UniProt Q16539, whole entry: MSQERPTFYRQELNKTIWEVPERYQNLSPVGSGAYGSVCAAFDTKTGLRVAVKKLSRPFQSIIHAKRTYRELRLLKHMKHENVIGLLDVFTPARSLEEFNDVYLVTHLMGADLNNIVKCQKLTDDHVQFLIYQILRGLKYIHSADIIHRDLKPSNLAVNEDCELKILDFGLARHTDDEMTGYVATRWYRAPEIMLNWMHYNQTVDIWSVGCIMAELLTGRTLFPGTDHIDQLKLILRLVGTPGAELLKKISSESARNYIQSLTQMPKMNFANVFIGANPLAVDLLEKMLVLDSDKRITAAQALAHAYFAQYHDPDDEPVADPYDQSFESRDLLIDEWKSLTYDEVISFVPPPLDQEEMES

Where only a bound is given, the exact number is not on record here.

The test has as its target T1, p38 MAPK alpha (MAPK14: Invitrogen) (Homo sapiens, UniProt Q16539).
T1 construct: purchased Invitrogen
The test can be described thus: Enzyme inhibition assay (FRET, Z-LYTE), p38 MAPK alpha, via activation of MAPKAP-K2. In kind it is biochemical. The following applies: read-out: IC50 values p38α enzyme.

Take `COCC(=O)Nc1cnccc1COc1ccc(NC(=O)Nc2cc(C(C)(C)C)nn2-c2ccc(C)cc2)c2ccccc12` [Example 35, N-(4-((4-(3-(3-tert-Butyl-1-p-tolyl-1H-pyrazol-5-yl)ureido)naphthalen-1-yloxy)methyl)pyridin-3-yl)-2-methoxyacetamide]: the IC50 was under 10 nM.
